Measurements taken from paper PMC3343186 (Nature, 2012).

System: diet-induced obese C57BL6 mice
Experiment: Diet-induced obese mice, 30-day treatment
Assay type: in vivo
Conditions: DIO C57Bl6 mice, 100mg/kg i.p. b.i.d., 30 days

SMILES: CCOC(=O)N1CCC(CN(Cc2ccc(Cl)cc2)Cc2ccc([N+](=O)[O-])s2)C1 (centres unmarked) [SR9009]
- adiposity (fat mass): more severe reduction in adiposity
- food intake vs vehicle: no significant difference
